{"source": "paper PMC2288786", "about": "“Interaction between the C-terminal region of human myelin basic protein and calmodulin: analysis of complex formation and solution structure” (BMC Structural Biology, 2008)", "target": "T1, CaM (Rattus norvegicus, UniProt P0DP29)", "T1 construct": "made in house; host or cells: E. coli Rosetta (DE3)", "experiment": "Thermal denaturation of CaM with and without MBP peptide followed by CD", "type": "physicochemical, vertebrate", "settings": "CD at 222 nm, 30°C/h from +20 to +98°C", "data": [{"substance": "calmodulin [CaM]", "values": [{"measurement": "temperature of major denaturation transition", "result": "~90", "unit": "°C"}]}]}
